Earlier results as cited in article PMC9260974 (BMC Pharmacology & Toxicology, 2022).

Details: lisinopril; cited from earlier work

NCCCC[C@H](N[C@@H](CCc1ccccc1)C(=O)O)C(=O)N1CCC[C@H]1C(=O)O [lisinopril]
Plasma protein binding: does not bind to other plasma proteins other than ACE
Solubility: high solubility
